Data as given in patent publication US20260384453A1, “FUSED RING COMPOUND AND USE THEREOF IN KRAS INHIBITOR” (published 2026).

By UniProt entry, the sequences of proteins in these tests, tags left out. Chains listed by the source or under a name are the forms on record and can include a tag or linker. Residues count along the entry.
UniProt P01116, 1-188 with tags or gaps G12D: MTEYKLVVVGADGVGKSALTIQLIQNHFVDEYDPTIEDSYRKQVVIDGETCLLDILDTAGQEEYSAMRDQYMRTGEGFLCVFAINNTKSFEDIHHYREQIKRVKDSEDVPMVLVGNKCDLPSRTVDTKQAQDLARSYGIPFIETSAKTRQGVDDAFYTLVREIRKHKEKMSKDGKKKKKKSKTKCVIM

Columns and labels:
[1] = tested on: human ovarian cancer RKN mouse xenograft tumor; assay: In vivo drug efficacy, RKN subcutaneous xenograft in Balb/c nude mice; settings: 50 mg/kg, PO, BID × 28
Protocol: A subcutaneous xenograft tumor model of human ovarian cancer RKN (derived from uterine leiomyosarcoma) cells was established in Balb/c nude mice. RKN tumor cells resuspended in Ham's F12 medium were inoculated subcutaneously on the right side of the experimental animals at 5×10^6+gel/0.1 mL. When the tumor grew to about 150-200 mm^3, 20 animals having relatively uniform tumor volumes were selected for group administration, with a total of 4 groups, 5 animals in each group. On the day of the experiment, the animals were given the corresponding drugs according to the groups. The first group G1 was set as a solvent group, and 50 mM citrate buffer (pH 5.0)+10% Captisol was given by gavage alone. The second group G2 was given a 50 mM citrate buffer (pH 5.0)+10% Captisol of compound 21. The third group G3 was given a 50 mM citrate buffer (pH 5.0)+10% Captisol of compound 26. The fourth group G4 was given a 50 mM citrate buffer (pH 5.0)+10% Captisol of compound 31.
(§1) Note: PO indicates oral administration, and BID indicates twice daily.
(§2) During the experiment, the body weight and tumor size of the animals were measured twice a week, and the clinical symptoms of the animals were observed and recorded every day. Each drug administration was based on the most recent weighing of the animals.
(§3) The tumor was measured with a digital vernier caliper to measure the length (a) and width (b). The tumor volume (TV) was calculated using the following formula: […]

[2] = biological target: KRAS G12D-mediated ERK phosphorylation, AGS cells (Homo sapiens, UniProt P01116, G12D); assay: Inhibition of KRAS G12D-mediated ERK phosphorylation in AGS cells; settings: read-out: Inhibitory activity on ERK phosphorylation (IC50), AGS-G12D, 3 h incubation
Protocol: Test Example 1: Inhibitory Activity Test of Compounds on KRAS G12D/G12V/G12C/G13D/G12R-Mediated ERK Phosphorylation
Day 1: AGS cells, SW480 cells, NCI H358 cells, HCT116 cells, and KP2 cells were seeded into 384-well cell culture plates and cultured overnight in a 37 °C, 5% CO2 incubator.
Day 2: The compounds were added to the plates using Echo550 and incubated for 3 h in a 37 °C, 5% CO2 incubator. Then, cells fixed with paraformaldehyde, permeated with methanol and blocked with a blocking solution were added. Finally, a mixed solution of primary antibodies (rabbit anti pERK, mouse anti GAPDH) was added, and the mixture was incubated overnight at 4 °C.
Day 3: The mixed solution of primary antibodies was discarded, and a mixed solution of secondary antibodies (goat anti rabbit 800 CW, goat anti mouse 680 RD) was added. The resulting mixture was incubated at room temperature in the dark. Finally, the cell culture plate was washed with PBST, and then inverted for 1 minute of centrifugation. The fluorescence signal values were read with Odyssey CLx.
ERK phosphorylation was calculated according to the following formula:
Relative expression: (fluorescence signal ratio of compound−average value of positive control)/(average value of negative control−average value of positive control)
Positive control: 10 μM Reference
IC50 value was fitted and calculated by XLFit 5.0 using the parametric formula. […]

[3] = tested on: human colon cancer GP2D mouse xenograft tumor; assay: In vivo drug efficacy, GP2D subcutaneous xenograft in Balb/c nude mice; settings: 30 mg/kg, PO, BID × 28
Protocol: A human colon cancer GP2D cell subcutaneous xenograft tumor Balb/c nude mouse model was established. GP2D tumor cells resuspended in DMEM medium were inoculated subcutaneously on the right side of the experimental animal at 1×10^7+gel/0.1 mL. When the tumor grew to about 150-200 mm^3, administration in groups began, with 5 animals in each group. On the day of the experiment, the animals were given corresponding drugs according to the groups. The first group G1 was set as a solvent group, and 50 mM citrate buffer (pH 5.0)+10% Captisol was given by gavage alone. The second group G2 was given a 50 mM citrate buffer (pH 5.0)+10% Captisol of compound 26. The third group G3 was given a 50 mM citrate buffer (pH 5.0)+10% Captisol of compound 31.
as §1, §2, §3

Row | IC50 [2] [nM] | SMILES | Inhibitory effect on RKN xenograft tumors (in words) [1] | Inhibitory effect on GP2D xenograft tumors (in words) [3]
1 | – | CC1(O)COCCN(c2nc(OC[C@]34CCCN3[C@@H](c3cc(F)c(F)c(F)c3)CC4)nc3c(F)c(-c4cccc5sc(N)c(C#N)c45)c(Cl)cc23)C1 (single isomer, unassigned) [Example 21] | significant inhibitory effects | –
2 | > 1000 | COC1CCN(c2nc(OC[C@]34CCCN3[C@@H](c3cc(F)c(F)c(F)c3)CC4)nc3c(F)c(-c4ccc(F)c5sc(N)c(C#N)c45)c(Cl)cc23)C1 (mixture of isomers) | – | –
3 | 313 | N#Cc1c(N)sc2c(F)ccc(-c3c(Cl)cc4c(N5CCCC(O)(C(F)(F)F)CC5)nc(OC[C@]56CCCN5[C@@H](c5cc(F)c(F)c(F)c5)CC6)nc4c3F)c12 (mixture of isomers) | – | –
4 | – | CC1(O)COCCN(c2nc(OC[C@]34CCCN3[C@@H](c3cc(F)c(F)c(F)c3)CC4)nc3c(F)c(-c4cccc5sc(N)c(C#N)c45)c(Br)cc23)C1 (single isomer, unassigned) [Example 26] | significant inhibitory effects | significant inhibitory effects
5 | – | CC1(O)COCCN(c2nc(OC[C@]34CCCN3[C@@H](c3cc(F)c(F)c(F)c3)CC4)nc3c(F)c(-c4cccc5sc(N)c(C#N)c45)c(I)cc23)C1 (single isomer, unassigned) [Example 31] | significant inhibitory effects | significant inhibitory effects
